Where a chain is given by its changes, count along the chain named.
Experiment: Stability at elevated temperatures: concentration of supernatant (OD280) after heating
Type: physicochemical
[1] = 37° C., percentage of the concentration at room temperature, Table 26
[2] = 50° C., percentage of the concentration at room temperature, Table 26
[3] = 60° C., percentage of the concentration at room temperature, Table 26
[4] = 70° C., percentage of the concentration at room temperature, Table 26
[5] = 80° C., percentage of the concentration at room temperature, Table 26
[6] = 90° C., percentage of the concentration at room temperature, Table 26
[7] = RT, OD280 nm concentration of supernatant as percentage of the concentration at room temperature, Table 26

B1: 12A5-3a-12A5 (protein)
VHH: AVQLVESGGGLVQPGGSLRLSCLASGRIFSIGAMGMYRQAPGKQRELVATITSGGSTNYADPVKGRFTISRDGPKNTVYLQMNSLKPEDTAVYYCYANLKQGSYGYRFNDYWGQGTQVTVSSAAAEVQLVESGGGLVQPGGSLRLSCLASGRIFSIGAMGMYRQAPGKQRELVATITSGGSTNYADPVKGRFTISRDGPKNTVYLQMNSLKPEDTAVYYCYANLKQGSYGYRFNDYWGQGTQVTVSS
37° C., Table 22
  Concentration after heating at increasing temperatures: 101
50° C., Table 22
  Concentration after heating at increasing temperatures: 114
60° C., Table 22
  Concentration after heating at increasing temperatures: 29
70° C., Table 22
  Concentration after heating at increasing temperatures: 6
80° C., Table 22
  Concentration after heating at increasing temperatures: 4
90° C., Table 22
  Concentration after heating at increasing temperatures: 6
RT, Table 22
  Concentration after heating at increasing temperatures: 100

B2: 12A2-3a-12A2 (protein)
VHH: QVKLEESGGGLVQAGGALRLSCAASGRTFSYNPMGWFRQAPGKERDLVAAISRTGGSTYYPDSVEGRFTISRDNAKRMVYLQMNNLKPEDTAVYYCAAAGVRAEDGRVRTLPSEYTFWGQGTQVTVSSAAAEVQLVESGGGLVQAGGALRLSCAASGRTFSYNPMGWFRQAPGKERDLVAAISRTGGSTYYPDSVEGRFTISRDNAKRMVYLQMNNLKPEDTAVYYCAAAGVRAEDGRVRTLPSEYTFWGQGTQVTVSS
37° C., Table 21
  Concentration after heating at increasing temperatures: 87
50° C., Table 21
  Concentration after heating at increasing temperatures: 88
60° C., Table 21
  Concentration after heating at increasing temperatures: 91
70° C., Table 21
  Concentration after heating at increasing temperatures: 55
80° C., Table 21
  Concentration after heating at increasing temperatures: 50
90° C., Table 21
  Concentration after heating at increasing temperatures: 43
RT, Table 21
  Concentration after heating at increasing temperatures: 100

B3: 12B6-GS9-12B6 (protein)
chain: QVQLVESGGGLVQAGGALRLSCAASGRTFSYNPMGWFRQAPGKERDVVAAISRTGGSTYYARSVEGRFTISRDNAKRMVYLQMNALKPEDTAVYYCAAAGVRAEDGRVRTLPSEYNFWGQGTQVTVSSGGGGSGGGSEVQLVESGGGLVQAGGALRLSCAASGRTFSYNPMGWFRQAPGKERDVVAAISRTGGSTYYARSVEGRFTISRDNAKRMVYLQMNALKPEDTAVYYCAAAGVRAEDGRVRTLPSEYNFWGQGTQVTVSS
37° C., Table 20
  Concentration after heating at increasing temperatures: 103
50° C., Table 20
  Concentration after heating at increasing temperatures: 94
60° C., Table 20
  Concentration after heating at increasing temperatures: 88
70° C., Table 20
  Concentration after heating at increasing temperatures: 19
80° C., Table 20
  Concentration after heating at increasing temperatures: 8
90° C., Table 20
  Concentration after heating at increasing temperatures: 7
RT, Table 20
  Concentration after heating at increasing temperatures: 100

B4: 12A5-GS9-12A5 (protein)
chain: AVQLVESGGGLVQPGGSLRLSCLASGRIFSIGAMGMYRQAPGKQRELVATITSGGSTNYADPVKGRFTISRDGPKNTVYLQMNSLKPEDTAVYYCYANLKQGSYGYRFNDYWGQGTQVTVSSGGGGSGGGSEVQLVESGGGLVQPGGSLRLSCLASGRIFSIGAMGMYRQAPGKQRELVATITSGGSTNYADPVKGRFTISRDGPKNTVYLQMNSLKPEDTAVYYCYANLKQGSYGYRFNDYWGQGTQVTVSS
37° C., Table 22
  Concentration after heating at increasing temperatures: 104
50° C., Table 22
  Concentration after heating at increasing temperatures: 115
60° C., Table 22
  Concentration after heating at increasing temperatures: 32
70° C., Table 22
  Concentration after heating at increasing temperatures: 13
80° C., Table 22
  Concentration after heating at increasing temperatures: 14
90° C., Table 22
  Concentration after heating at increasing temperatures: 10
RT, Table 22
  Concentration after heating at increasing temperatures: 100

B5: 12B6H3: humanised 12B6 nanobody, SEQ ID NO: 88 (protein)
VHH: EVQLVESGGGLVQPGGSLRLSCAASGRTFSYNPMGWFRQAPGKGRDVVAAISRTGGSTYYARSVEGRFTISRDNAKNMVYLQMNSLRAEDTAVYYCAAAGVRAEDGRVRTLPSEYNFWGQGTQVTVSS
[1]
  Concentration after heating at increasing temperatures: 101%
[2]
  Concentration after heating at increasing temperatures: 98%
[3]
  Concentration after heating at increasing temperatures: 97%
[4]
  Concentration after heating at increasing temperatures: 74%
[5]
  Concentration after heating at increasing temperatures: 73%
[6]
  Concentration after heating at increasing temperatures: 65%
[7]
  Concentration after heating at increasing temperatures: 100%

B6: 12A2H11: humanised 12A2 nanobody, SEQ ID NO: 93 (protein)
VHH: B5 VHH with R27F, D46E, V47L, A61P, R62D, N77R, N116T
37° C., percentage of the concentration at room temperature, Table 30
  Concentration after heating at increasing temperatures: 111%
50° C., percentage of the concentration at room temperature, Table 30
  Concentration after heating at increasing temperatures: 113%
60° C., percentage of the concentration at room temperature, Table 30
  Concentration after heating at increasing temperatures: 107%
70° C., percentage of the concentration at room temperature, Table 30
  Concentration after heating at increasing temperatures: 103%
80° C., percentage of the concentration at room temperature, Table 30
  Concentration after heating at increasing temperatures: 85%
90° C., percentage of the concentration at room temperature, Table 30
  Concentration after heating at increasing temperatures: 67%
RT, OD280 nm concentration of supernatant as percentage of the concentration at room temperature, Table 30
  Concentration after heating at increasing temperatures: 100%

B7: 12B6H2: humanised 12B6 nanobody, SEQ ID NO: 87 (protein)
VHH: B5 VHH with D46E, N77R
[1]
  Concentration after heating at increasing temperatures: 97%
[2]
  Concentration after heating at increasing temperatures: 96%
[3]
  Concentration after heating at increasing temperatures: 96%
[4]
  Concentration after heating at increasing temperatures: 83%
[5]
  Concentration after heating at increasing temperatures: 46%
[6]
  Concentration after heating at increasing temperatures: 53%
[7]
  Concentration after heating at increasing temperatures: 100%

B8: 12B6H1: humanised 12B6 nanobody, SEQ ID NO: 86 (protein)
VHH: B5 VHH with N77R
[1]
  Concentration after heating at increasing temperatures: 101%
[2]
  Concentration after heating at increasing temperatures: 100%
[3]
  Concentration after heating at increasing temperatures: 97%
[4]
  Concentration after heating at increasing temperatures: 45%
[5]
  Concentration after heating at increasing temperatures: 58%
[6]
  Concentration after heating at increasing temperatures: 54%
[7]
  Concentration after heating at increasing temperatures: 100%

B9: 12B6H4: humanised 12B6 nanobody, SEQ ID NO: 89 (protein)
VHH: B5 VHH with N77R, M78S
[1]
  Concentration after heating at increasing temperatures: 101%
[2]
  Concentration after heating at increasing temperatures: 100%
[3]
  Concentration after heating at increasing temperatures: 93%
[4]
  Concentration after heating at increasing temperatures: 41%
[5]
  Concentration after heating at increasing temperatures: 66%
[6]
  Concentration after heating at increasing temperatures: 54%
[7]
  Concentration after heating at increasing temperatures: 100%

B10: 12B6-3a-12B6 (protein)
VHH: QVQLVESGGGLVQAGGALRLSCAASGRTFSYNPMGWFRQAPGKERDVVAAISRTGGSTYYARSVEGRFTISRDNAKRMVYLQMNALKPEDTAVYYCAAAGVRAEDGRVRTLPSEYNFWGQGTQVTVSSAAAEVQLVESGGGLVQAGGALRLSCAASGRTFSYNPMGWFRQAPGKERDVVAAISRTGGSTYYARSVEGRFTISRDNAKRMVYLQMNALKPEDTAVYYCAAAGVRAEDGRVRTLPSEYNFWGQGTQVTVSS
37° C., Table 20
  Concentration after heating at increasing temperatures: 103
50° C., Table 20
  Concentration after heating at increasing temperatures: 96
60° C., Table 20
  Concentration after heating at increasing temperatures: 87
70° C., Table 20
  Concentration after heating at increasing temperatures: 9
80° C., Table 20
  Concentration after heating at increasing temperatures: 8
90° C., Table 20
  Concentration after heating at increasing temperatures: 6
RT, Table 20
  Concentration after heating at increasing temperatures: 100

B11: 12A2-GS9-12A2 (protein)
VHH: QVKLEESGGGLVQAGGALRLSCAASGRTFSYNPMGWFRQAPGKERDLVAAISRTGGSTYYPDSVEGRFTISRDNAKRMVYLQMNNLKPEDTAVYYCAAAGVRAEDGRVRTLPSEYTFWGQGTQVTVSSGGGGSGGGSEVQLVESGGGLVQAGGALRLSCAASGRTFSYNPMGWFRQAPGKERDLVAAISRTGGSTYYPDSVEGRFTISRDNAKRMVYLQMNNLKPEDTAVYYCAAAGVRAEDGRVRTLPSEYTFWGQGTQVTVSS
37° C., Table 21
  Concentration after heating at increasing temperatures: 102
50° C., Table 21
  Concentration after heating at increasing temperatures: 113
60° C., Table 21
  Concentration after heating at increasing temperatures: 138
70° C., Table 21
  Concentration after heating at increasing temperatures: 91
80° C., Table 21
  Concentration after heating at increasing temperatures: 13
90° C., Table 21
  Concentration after heating at increasing temperatures: 15
RT, Table 21
  Concentration after heating at increasing temperatures: 100
